SMILES strings stand for the structures.

Sequences of proteins named here, by UniProt entry; tags and fusion partners are left off. Residues count along the entry.
UniProt P13051, 94-313 limits assumed: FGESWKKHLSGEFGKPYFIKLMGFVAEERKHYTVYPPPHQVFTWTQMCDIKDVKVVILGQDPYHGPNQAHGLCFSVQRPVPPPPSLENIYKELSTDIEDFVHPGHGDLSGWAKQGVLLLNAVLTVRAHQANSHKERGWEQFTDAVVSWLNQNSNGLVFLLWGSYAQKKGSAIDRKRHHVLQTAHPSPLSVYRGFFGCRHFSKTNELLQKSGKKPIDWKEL
UniProt P13051, 1-304 isoform P13051-2: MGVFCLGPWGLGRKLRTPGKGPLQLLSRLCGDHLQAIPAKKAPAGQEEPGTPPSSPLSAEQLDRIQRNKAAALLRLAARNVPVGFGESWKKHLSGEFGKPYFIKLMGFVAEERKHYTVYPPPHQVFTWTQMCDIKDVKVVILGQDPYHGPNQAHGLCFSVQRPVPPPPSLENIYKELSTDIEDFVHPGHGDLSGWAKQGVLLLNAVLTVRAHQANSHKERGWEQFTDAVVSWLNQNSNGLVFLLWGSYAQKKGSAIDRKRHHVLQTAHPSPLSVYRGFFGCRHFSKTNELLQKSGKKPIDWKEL

The target in experiment [1] is T1, human UDG (Homo sapiens, UniProt P13051). Nature of the experiment: UDG protein thermal shift with Sypro orange dye. The class given is binding. Particulars: fluorescence dye thermal shift. The protocol: FIGS. 3(A-C) illustrate ATA directly binds and destabilizes the human UDG protein. A: ATA binding to UDG measured by MST. ATA (30 nM to 500 μM) was titrated into a fixed concentration of labeled UDG (100 nM). The data for thermophoresis was recorded at 20° C. using the blue LED at 20% and IR-Laser at 40%. The isotherm derived from the raw data and fitted according to the law of mass action. […] Monitoring of fluorescence took place for 2 hr (Bioraid CFX96, Hex filter, 25-97° C., 1.6° C./2 min). Negative (−) derivative RFU raw data and plots from the machine were obtained and analyzed. […] C: Monitoring the thermal stability of UDG in the presence of titrating concentrations of ATA through intrinsic tryptophan fluorescence. […]
FIGS. 10(A-D) illustrate UDG thermal shift. […] Each plate was incubated 60 min at room temperature before the monitoring of fluorescence took place about 2 hr (Biorad CFX96, Hex filter, 25° C.-97C, 1.6° C./2 min). […] Each plate was incubated 60 min at room temperature before the monitoring of fluorescence took place about 2 hr (Biorad CFX96, Hex filter, 25° C.-97° C., increment of 1.6° C./2 min). […]

In experiment [2] the test system is uracil removal (U:G base pair) in MCF-7 cells. The experiment in a line: Host-cell reactivation assay, uracil removal from reporter plasmid, MCF-7. The class given is cell-based, human. Particulars: ATA 2.5 μM. How it is done:
(§1) FIG. 6(A-B) illustrate measurement of ATA in vivo using a host-cell reactivation assay. A: MCF-7 cells were seeded at 50,000 cells per well in a 12-well plate. B: HAP cells (wild type or UNG gene knockout) were seeded at 75,000 cells per well in a 6-well plate. Cells were allowed to adhere overnight and then cells in duplicate wells were treated with DMSO or ATA (2.5, 5, or 10 μM) for 24 hr (refer to methodology). After 24 hours, cells were dissociated by trypsinization and analyzed by flow cytometry using an Atune NxT flow cytometer. Gating and compensation were determined by transfection of single-color controls. Reporter expression was calculated for each dose of ATA as previously described in publications and normalized to DMSO treatment.
(§2) FIGS. 7(A-B) illustrate measurement of ATA inhibition on uracil, 8oxoG:C, A:8oxoG:C, Hypoxanthine:T and T:G repairs in MCF-7 cells using a host-cell reactivation assay with doses. Panel A: 1.25 μM and panel B: 2.5 μM. Reporter expression was calculated for each dose of ATA as described in prior publications and normalized to DMSO treatment.
Removal of uracil in cells was measured using a reporter plasmid containing a dU:dG base pair (referred to as BFP_U), as described previously. […] The reciprocal of BFP_U reporter expression was calculated for each experimental condition. […] This creates a premature stop codon, completely abolishing fluorescence. […]

The subject of experiment [3] is uracil removal in UDG-knockout HAP cells. Nature of the experiment: Host-cell reactivation assay, uracil removal, UDG-knockout HAP cells. Particulars: ATA 5 μM; from ~0.3 without ATA. The format is cell-based, human. How it is done: as §1
Removal of uracil in cells was measured using a reporter plasmid containing a dU:dG base pair (referred to as BFP_U), as described previously. In brief, dU is substituted into the transcribed strand at position 191 of the blue fluorescent protein (BFP) gene. When RNA polymerase II incorporates dA opposite dU, transcripts encoding wild type BFP are produced. […] The reciprocal of BFP_U reporter expression was calculated for each experimental condition. […] This creates a premature stop codon, completely abolishing fluorescence. Removal of thymidine followed by insertion of dC opposite dG restores reporter fluorescence. […]

Experiment [4] deals with 8oxoG:C (OGG1) repair in MCF-7 cells. Nature of the experiment: Host-cell reactivation assay, 8oxoG:C reporter, MCF-7. The format is cell-based, human. The following applies: ATA 2.5 μM. How it is done:
as §2
(§3) Removal of uracil in cells was measured using a reporter plasmid containing a dU:dG base pair (referred to as BFP_U), as described previously. In brief, dU is substituted into the transcribed strand at position 191 of the blue fluorescent protein (BFP) gene. When RNA polymerase II incorporates dA opposite dU, transcripts encoding wild type BFP are produced. Upon repair, dU is replaced by dC, leading to production of transcripts encoding a non-fluorescent protein. […] A corresponding cocktail of damage-free plasmids containing pmax BFP (100 ng per transfection), pmax GFP (100 ng per transfection), and carrier plasmid (800 ng per transfection) constituted the “undamaged” cocktail. […] The reciprocal of BFP_U reporter expression was calculated for each experimental condition. […] This creates a premature stop codon, completely abolishing fluorescence. Removal of thymidine followed by insertion of dC opposite dG restores reporter fluorescence.

Experiment [5] deals with hypoxanthine:T (MPG) repair in MCF-7 cells. Nature of the experiment: Host-cell reactivation assay, hypoxanthine:T reporter, MCF-7. The format is cell-based, human. Particulars: ATA 2.5 μM. How it is done:
as §2, §3

Experiment [6] addresses T1, human UDG. Nature of the experiment: Gel-based DNA cleavage assay with a single U:A basepair. Details: 6xHis; purchased XTAL Biostructures; host or cells: Sf9 insect cells. The class given is biochemical. The protocol:
20% polyacrylamide nucleic acid urea gel electrophoresis was used to resolve the DNA bands at room temperature, 200 v for 50 min. Analysis and quantification of DNA cleavage were done as follows. A background subtraction step was included using the 23mer from the DNA only lane. […] A single oxo-guanine: cytosine base pair DNA with a Cy3 fluorescent tag on the 3′ end was used (10 nM).
Following pre-incubation occurred for 20 min at 37° C., 2 μL of U:A DNA (500 nM stock) was added to initiate the reaction, total reaction volume of 50 μL/well. Each plate was incubated for 120 min at 37° C. Then, each 96 well plate was sealed and heated at a constant temperature of 95° C. for 55 min using the CFX96 real time system thermocycler. After the heating process, 5 μL of a bromophenol blue denaturing loading dye (20milligrams of bromophenol blue, 9.7 ml of formamide plus 300 μL of 10M NaOH) was added to each reaction well. […] TBE buffer was prepared by dissolving 54 grams of tris base, 28 grams of boric acid, and 4.5 grams of EDTA in 1.0 liter of distilled H2O. Gels were processed at 200V for 60 min in the dark. […] Gel data were analyzed using ImageJ software. […] Percent cleavage was calculated by using fluorescence intensity of the cleaved 23-mer DNA strand divided by the sum of the fluorescence bands (23mer+40mer DNA strands)*100. […]

Turning to `O=C(O)C1=CC(=C(c2ccc(O)c(C(=O)O)c2)c2ccc(O)c(C(=O)O)c2)C=CC1=O` [ATA, aurintricarboxylic acid], the “destabilization of the human UDG protein (thermal shift)” value on human UDG [1] is listed as “dose-dependent destabilization”. Moreover, the “reduction in relative repair of uracil” value in experiment [2] is reported as 0.58. Further, the “relative uracil removal in UDG-knockout cells” value in experiment [3] is listed as ~0.1. Moreover, in experiment [4], the “reduction in relative repair of 8oxoG:C” value was found to be 0.13. Further, the “reduction in relative repair of hypoxanthine:T” value in experiment [5] was determined as 0.35. Moreover, the “difference of IC50, OGG1 vs UDG” value at human UDG [6] was found to be 5 fold.

The values above are taken from patent publication US20240156764A1, “INHIBITION OF URACIL DNA GLYCOSYLASE IN THE OPEN CONFORMATION” (CASE WESTERN RESERVE UNIVERSITY, priority 2022, published 2024).
